The chains behind the UniProt entries cited, without tags or fusion partners.
UniProt P68400, whole entry: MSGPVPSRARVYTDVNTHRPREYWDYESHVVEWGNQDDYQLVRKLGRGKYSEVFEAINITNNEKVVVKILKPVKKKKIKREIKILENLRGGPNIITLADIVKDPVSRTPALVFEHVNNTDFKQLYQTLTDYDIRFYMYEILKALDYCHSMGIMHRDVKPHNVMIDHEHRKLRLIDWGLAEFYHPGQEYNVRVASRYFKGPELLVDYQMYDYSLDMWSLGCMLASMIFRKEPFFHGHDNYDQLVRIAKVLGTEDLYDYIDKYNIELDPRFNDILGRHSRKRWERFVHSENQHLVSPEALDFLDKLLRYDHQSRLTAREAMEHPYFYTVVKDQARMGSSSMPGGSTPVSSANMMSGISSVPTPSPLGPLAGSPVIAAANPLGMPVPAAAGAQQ

According to article PMC4491662, “Synthesis, Biological Evaluation and Molecular Modeling of Substituted Indeno[1,2-b]indoles as Inhibitors of Human Protein Kinase CK2” (Pharmaceuticals, 2015):

Target: human CK2 holoenzyme (Homo sapiens, UniProt P68400)
Test: biochemical
Settings: for inhibition at 10 µM: average percent inhibition at 10 µM

SMILES | IC50 [nM] | inhibition at 10 µM [%]
Cc1cc(O)c2c3c(n(C(C)C)c2c1)-c1ccccc1C3=O [Compound 6a, 9-Hydroxy-5-isopropyl-7-methyl-5H-indeno[1,2-b]indol-10-one] | 1270 ± 270 | 64
CC(C)c1cc(O)c2c3c(n(C(C)C)c2c1)-c1ccccc1C3=O [Compound 6b, 9-Hydroxy-5,7-diisopropyl-5H-indeno[1,2-b]indol-10-one] | 1450 ± 320 | 60
CC(C)n1c2c(c3c(O)cc(-c4ccccc4)cc31)C(=O)c1ccccc1-2 [Compound 6c, 9-Hydroxy-5-isopropyl-7-phenyl-5H-indeno[1,2-b]indol-10-one] |  | 42
CC(C)n1c2c(c3c(O)cc(-c4ccc(F)cc4)cc31)C(=O)c1ccccc1-2 [Compound 6d, 7-(4-Fluorophenyl)-9-hydroxy-5-isopropyl-5H-indeno[1,2-b]indol-10-one] | 2770 ± 350 | 59
CC(C)n1c2c(c3c(O)cc(-c4ccco4)cc31)C(=O)c1ccccc1-2 [Compound 6e, 7-Furan-2-yl-9-hydroxy-5-isopropyl-5H-indeno[1,2-b]indol-10-one] | 3630 ± 340 | 65
CC(C)c1ccc2c(c1O)c1c(n2C(C)C)-c2ccccc2C1=O [Compound 6g, 9-Hydroxy-5,8-diisopropyl-5H-indeno[1,2-b]indol-10-one] |  | 35
